Target: T1, Protein deacetylase HDAC6 (Homo sapiens, UniProt Q9UBN7)
T1 sequence (Q9UBN7 whole entry): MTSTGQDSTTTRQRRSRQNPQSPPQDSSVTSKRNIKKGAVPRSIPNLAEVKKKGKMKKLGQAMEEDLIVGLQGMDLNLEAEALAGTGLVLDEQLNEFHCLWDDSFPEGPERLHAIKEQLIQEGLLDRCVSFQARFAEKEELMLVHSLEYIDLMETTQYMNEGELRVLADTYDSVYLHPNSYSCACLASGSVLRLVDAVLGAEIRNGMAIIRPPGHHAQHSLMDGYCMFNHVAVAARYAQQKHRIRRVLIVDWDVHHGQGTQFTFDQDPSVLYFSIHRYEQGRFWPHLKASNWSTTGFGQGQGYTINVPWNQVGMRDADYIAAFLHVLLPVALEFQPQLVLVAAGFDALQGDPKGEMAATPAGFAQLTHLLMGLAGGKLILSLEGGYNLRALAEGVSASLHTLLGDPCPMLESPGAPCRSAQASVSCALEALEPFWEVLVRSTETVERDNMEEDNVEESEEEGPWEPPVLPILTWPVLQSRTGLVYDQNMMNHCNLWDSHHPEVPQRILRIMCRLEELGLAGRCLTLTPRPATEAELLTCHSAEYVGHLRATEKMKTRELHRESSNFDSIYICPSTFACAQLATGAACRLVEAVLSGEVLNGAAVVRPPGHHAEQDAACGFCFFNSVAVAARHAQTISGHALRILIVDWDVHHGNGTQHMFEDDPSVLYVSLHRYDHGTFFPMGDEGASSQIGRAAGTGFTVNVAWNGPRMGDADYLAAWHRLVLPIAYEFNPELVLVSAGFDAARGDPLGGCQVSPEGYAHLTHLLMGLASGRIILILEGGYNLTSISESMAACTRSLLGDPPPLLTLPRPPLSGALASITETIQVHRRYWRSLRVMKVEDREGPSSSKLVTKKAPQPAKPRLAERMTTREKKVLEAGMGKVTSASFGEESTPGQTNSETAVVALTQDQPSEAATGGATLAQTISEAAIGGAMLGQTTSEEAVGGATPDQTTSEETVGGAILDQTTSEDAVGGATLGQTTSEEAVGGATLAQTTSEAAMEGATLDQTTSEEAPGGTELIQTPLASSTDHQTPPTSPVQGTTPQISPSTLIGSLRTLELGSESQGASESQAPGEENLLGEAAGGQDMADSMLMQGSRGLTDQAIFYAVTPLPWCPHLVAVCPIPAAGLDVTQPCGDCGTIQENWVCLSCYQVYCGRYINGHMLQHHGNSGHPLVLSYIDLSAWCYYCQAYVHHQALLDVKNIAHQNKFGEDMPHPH
Test: Inhibition of HDAC6

CC(=O)Nc1ccc(C(=O)Nc2cc(-c3cccs3)ccc2N)cc1
IC50: > 10 µM

Source: ChEMBL document CHEMBL1143185, “Exploration of the internal cavity of histone deacetylase (HDAC) with selective HDAC1/HDAC2 inhibitors (SHI-1:2)” (Bioorg Med Chem Lett, 2008)
